One compound from article PMC9019507, “OAT10/SLC22A13 Acts as a Renal Urate Re-Absorber: Clinico-Genetic and Functional Analyses With Pharmacological Impacts” (Frontiers in Pharmacology, 2022) can be followed below.

Chains of the proteins cited; added tags and fusions are not shown. Lines headed by an entry give the natural chain unless they say otherwise; changes in a name come on top.
UniProt Q96S37: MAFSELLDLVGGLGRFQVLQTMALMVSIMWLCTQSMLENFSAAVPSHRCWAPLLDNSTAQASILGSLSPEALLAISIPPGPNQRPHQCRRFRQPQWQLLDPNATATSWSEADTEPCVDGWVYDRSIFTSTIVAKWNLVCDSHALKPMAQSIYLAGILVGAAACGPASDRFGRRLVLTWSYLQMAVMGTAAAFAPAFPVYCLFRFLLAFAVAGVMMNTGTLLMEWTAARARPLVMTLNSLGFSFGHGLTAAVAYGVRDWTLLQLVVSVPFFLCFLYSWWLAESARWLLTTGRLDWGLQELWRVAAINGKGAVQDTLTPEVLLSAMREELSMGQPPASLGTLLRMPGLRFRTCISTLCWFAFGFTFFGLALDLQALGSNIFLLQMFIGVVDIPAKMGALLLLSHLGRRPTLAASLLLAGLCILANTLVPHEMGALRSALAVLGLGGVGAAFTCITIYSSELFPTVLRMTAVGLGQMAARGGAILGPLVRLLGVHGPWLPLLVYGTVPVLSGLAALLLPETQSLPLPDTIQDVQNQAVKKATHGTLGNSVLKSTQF

As a reminder, the IC50 is the concentration that gives 50% inhibition. Read a high IC50 as a need for much substance.

The test has as its target T1, URAT1/SLC22A12 (Homo sapiens, UniProt Q96S37).
T1 construct: full-length human URAT1 wild-type, EGFP-fused (pEGFP-C1)
Briefly: cell-based. Also on record: species or system 293A; inhibition of [8-14C]-urate uptake by URAT1-expressing 293A cells, concentration-response. From the text:
Data are expressed as the mean ± SD; n = 4.

The compound `O=C(O)CSc1nnc(Br)n1-c1ccc(C2CC2)c2ccccc12` [LU, lesinurad] returned an IC50 of 14.6 µM.
